According to patent publication US7368439B2, “Dinucleoside poly(borano)phosphate derivatives and uses thereof” (BAR - ILAN University, priority 2005, dated 2008):

Conditions: pH 7.4/37° C., Tris/HCl buffer, 4 weeks (one month), sodium salts

decomposition	decomposition (listed as Up3(β-B)U)	Substance
no decomposition even after one month		diadenosine tri(borano)phosphate [compound 1]
no decomposition at all	no decomposition even after one month	diuridine tri(borano)phosphate [compound 2]

Where two headings read alike, the source gives them in different places.
